Measurements reported in article PMC3334918, “Mutagenesis and Functional Studies with Succinate Dehydrogenase Inhibitors in the Wheat Pathogen Mycosphaerella graminicola” (PLoS ONE, 2012).

The molecules below were run on wild type IPO323 M. graminicola strain. Conditions: minimal concentration to fully inhibit growth of WT IPO323, AE agar, 10^7 cells, 2 weeks at 20°C in the dark.
Assay type: cell-based, Mycosphaerella graminicola
Description: Selection plates were produced after adding 1% of a 100× DMSO solution of the active ingredients to pre-melted AE-agar.
With `O=C(Nc1ccccc1-c1ccc(Cl)cc1)c1cccnc1Cl` [Boscalid] the “Minimal selective concentration (MSC)” value was “Boscalid 30 µM (MSC)”.
In the case of `CC1=C(C(=O)Nc2ccccc2)SCCO1` [Carboxin], the “Minimal selective concentration (MSC)” value is reported as “Carboxin 85 µM (MSC)”.
In the case of `O=C(NCCc1ncc(C(F)(F)F)cc1Cl)c1ccccc1C(F)(F)F` [Fluopyram], the “Minimal selective concentration (MSC)” value is reported as “Fluopyram 25 µM (MSC)”.
